The record followed here is patent US6413978B1, “Basic derivatives of benz[e] isoindol-1-ones and pyrrolo[3,4-c] quinolin-1-ones with 5-HT3-antagonistic activity, their preparation and their therapeutic use” (Rotta Research Laboratorium S.p.A., priority 1998, dated 2002).

The chains behind the UniProt entries cited, without tags or fusion partners. Residues count along the entry.
UniProt P19327, whole entry: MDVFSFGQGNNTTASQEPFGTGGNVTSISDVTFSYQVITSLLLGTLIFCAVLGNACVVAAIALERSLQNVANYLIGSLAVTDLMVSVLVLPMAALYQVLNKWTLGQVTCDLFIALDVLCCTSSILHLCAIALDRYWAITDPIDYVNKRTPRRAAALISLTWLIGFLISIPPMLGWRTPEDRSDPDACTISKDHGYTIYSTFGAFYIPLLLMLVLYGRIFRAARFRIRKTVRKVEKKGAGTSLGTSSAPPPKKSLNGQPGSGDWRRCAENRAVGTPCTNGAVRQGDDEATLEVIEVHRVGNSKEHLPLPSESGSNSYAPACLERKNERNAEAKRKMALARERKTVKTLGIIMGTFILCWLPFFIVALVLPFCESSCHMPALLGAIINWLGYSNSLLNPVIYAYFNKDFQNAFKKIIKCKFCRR
UniProt P35563, 24-483: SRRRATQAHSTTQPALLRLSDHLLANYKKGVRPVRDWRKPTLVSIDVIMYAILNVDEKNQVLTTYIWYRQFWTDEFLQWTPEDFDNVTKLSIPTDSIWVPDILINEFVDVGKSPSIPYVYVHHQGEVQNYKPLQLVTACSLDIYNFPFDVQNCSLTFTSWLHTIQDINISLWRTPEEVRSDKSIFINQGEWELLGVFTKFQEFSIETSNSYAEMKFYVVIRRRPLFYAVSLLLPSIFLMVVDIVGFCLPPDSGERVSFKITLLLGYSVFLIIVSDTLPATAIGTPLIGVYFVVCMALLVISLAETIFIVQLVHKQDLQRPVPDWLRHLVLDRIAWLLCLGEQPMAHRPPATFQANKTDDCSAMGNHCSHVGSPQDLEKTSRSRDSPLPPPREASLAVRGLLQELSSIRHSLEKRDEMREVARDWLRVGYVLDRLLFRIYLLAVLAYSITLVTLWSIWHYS

In general, Ki refers to a dissociation constant, usually derived from enzyme kinetics or from competition with a known ligand.

The target in one assay is T1, 5-HT1A receptors (Rattus norvegicus, UniProt P19327).
T1 construct: from tissue; host or cells: rat hippocampus
Briefly: Affinity for the 5-HT1A receptors, [3H]-8-OH DPAT binding. As to conditions: rat hippocampus; 10 min, 37° C.; IN (10^−6M) where no Ki is given; read-out: Ki ± SE, 5-HT1A Subtype ([3H]-8OH-DPAT). The protocol:
d) Affinity for the 5-HT1A Receptors
The method of Hall et al (J. Neurochem. 1985, 44, 1685-1696) was followed with slight modifications. Rat hippocampus was used to produce a pellet having a final concentration of 4 mg of tissue/sample. Specific activity of the tracer: 137 Ci/mmole; incubation time 10 min; incubation temperature: 37° C.

A further assay addresses T2, 5-HT3 receptors (Rattus norvegicus, UniProt P35563).
T2 construct: from tissue; host or cells: rat cortex and hippocampus
Briefly: Affinity for the 5-HT3 receptors, [3H]-BRL43694 (Granisetron) binding. The protocol: a) Affinity for the 5-HT3 Receptors
The method of Nelson et al. (Biochem. Pharmacol. 1989, 38, 1693-95) was followed with slight modifications. Rat cortex and hippocampus were used to produce a pellet having a final concentration of 20 mg of tissue/sample. Specific activity of the tracer: 81 Ci/mmole; incubation time: 30 min; incubation temperature: 25° C.

Structures are written as SMILES.

With `NCCc1c[nH]c2ccc(O)cc12` [serotonin, reference compound], the Ki at 5-HT1A receptors was found to be 7.3 nM; at 5-HT3 receptors it was 118 ± 34 nM.
